Experimental data as given in paper PMC12087874, “Biaryl Phosphates and Phosphonates as Selective Inhibitors of the Transcription Factor STAT4” (Angewandte Chemie (International Ed. in English), 2025).

By UniProt entry, the sequences of proteins in these tests, tags left out.
UniProt P40763, whole entry: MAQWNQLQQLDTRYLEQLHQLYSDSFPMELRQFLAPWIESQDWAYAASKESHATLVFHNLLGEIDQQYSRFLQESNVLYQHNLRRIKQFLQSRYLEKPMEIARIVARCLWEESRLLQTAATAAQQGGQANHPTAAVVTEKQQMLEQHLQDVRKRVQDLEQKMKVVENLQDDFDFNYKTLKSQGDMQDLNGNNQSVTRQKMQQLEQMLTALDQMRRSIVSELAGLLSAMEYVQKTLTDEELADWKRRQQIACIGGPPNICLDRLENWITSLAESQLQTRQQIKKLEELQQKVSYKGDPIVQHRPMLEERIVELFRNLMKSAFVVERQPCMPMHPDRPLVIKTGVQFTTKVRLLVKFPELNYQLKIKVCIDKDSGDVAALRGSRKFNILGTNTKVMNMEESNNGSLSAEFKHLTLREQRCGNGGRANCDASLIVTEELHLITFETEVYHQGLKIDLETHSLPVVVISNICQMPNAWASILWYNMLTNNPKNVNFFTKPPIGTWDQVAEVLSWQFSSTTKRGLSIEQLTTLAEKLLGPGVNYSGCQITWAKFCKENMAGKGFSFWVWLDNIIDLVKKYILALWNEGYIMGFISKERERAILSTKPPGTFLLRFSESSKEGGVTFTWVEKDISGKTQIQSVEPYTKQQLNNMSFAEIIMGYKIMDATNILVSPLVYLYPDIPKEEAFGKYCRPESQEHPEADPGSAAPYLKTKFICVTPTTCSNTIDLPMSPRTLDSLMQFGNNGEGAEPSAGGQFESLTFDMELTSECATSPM

Molecular target: STAT3 (Homo sapiens, UniProt P40763)
Assay: CETSA of STAT3 in lysates from NK-92 cells
Type: binding
Design: endogenous in cells; host or cells: NK-92 (DSMZ) lysate
Conditions: Ac-pYLPQTV-NH2 at 100 µM
Method: NK-92 cells (DSMZ) were cultured in α-MEM containing 12.5% fetal bovine serum (FBS), 12.5% horse serum, 2 mM L-glutamine, penicillin/streptomycin and 50 U/ml IL -2. TALL-104 cells (ATCC, LGC Standards) were cultured in RPMI 1640 medium containing 20% FBS, 2 mM L - glutamine, penicillin/streptomy cin and 100 U/ml IL-2. HCC-827 cells (DSMZ) and K562 cells (DSMZ) were cultured in RPMI 1640 medium containing 10% FBS, 2 mM L -glutamine and penicillin/streptomycin. HCC -827 cells were subcultured by briefly rinsing with sterile PBS followed by incubation with 0.25% Trypsin-EDTA solution before inactivation by addition of cell culture medium (all reagents apart from cell lines were from Gibco at Thermo Fisher Scientific). […]
CETSA experiments were performed essentially using the published protocol. […] The soluble fractions were subsequently analyzed by Western blotting.
The components of cell lysates from treated cells, or heat-treated lysates from CETSA, were separated by SDS-PAGE (10%), transferred to nitrocellulose membrane (Bio-Rad) and detected using monoclonal rabbit primary antibodies (Cell Signaling), α-rabbit-HRP secondary antibody (Dako) and Western Lightning Plus chemiluminescence reagent (Perkin Elmer).
Bands were visualized using an ImageQuant system (GE Healthcare) and quantitated using ImageJ software (NIH). […]

## Ac-pYLPQTV-NH2 [reference compound]
  stabilization of STAT3 against thermal degradation: stabilizing effect
